From patent publication US20060211073A1, “Assay for B-Raf activity based on intrinsic MEK ATPase activity” (priority 2005, published 2006)

Sequences of proteins named here, by UniProt entry; tags and fusion partners are left off.
UniProt P15056, whole entry, species assumed: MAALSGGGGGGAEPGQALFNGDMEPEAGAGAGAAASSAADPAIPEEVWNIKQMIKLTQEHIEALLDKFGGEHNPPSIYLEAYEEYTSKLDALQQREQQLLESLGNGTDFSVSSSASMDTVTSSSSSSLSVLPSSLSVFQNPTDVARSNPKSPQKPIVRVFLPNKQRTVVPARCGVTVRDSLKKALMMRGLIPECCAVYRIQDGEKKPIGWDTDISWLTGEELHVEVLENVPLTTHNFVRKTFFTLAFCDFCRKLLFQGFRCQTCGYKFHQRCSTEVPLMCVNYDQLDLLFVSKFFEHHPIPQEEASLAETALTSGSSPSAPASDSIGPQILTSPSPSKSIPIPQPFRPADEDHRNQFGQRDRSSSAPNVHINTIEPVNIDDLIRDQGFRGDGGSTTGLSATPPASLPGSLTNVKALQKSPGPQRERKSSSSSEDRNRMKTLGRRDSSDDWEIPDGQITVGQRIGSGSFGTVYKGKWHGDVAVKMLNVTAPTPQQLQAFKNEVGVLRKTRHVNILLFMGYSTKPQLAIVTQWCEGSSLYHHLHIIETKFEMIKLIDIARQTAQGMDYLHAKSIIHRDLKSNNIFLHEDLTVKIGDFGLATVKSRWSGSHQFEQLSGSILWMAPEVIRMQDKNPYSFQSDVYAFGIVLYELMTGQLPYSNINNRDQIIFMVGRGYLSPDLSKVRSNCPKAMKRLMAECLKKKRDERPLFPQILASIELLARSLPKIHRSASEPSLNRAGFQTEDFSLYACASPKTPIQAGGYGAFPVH
UniProt P15056, whole entry V600E: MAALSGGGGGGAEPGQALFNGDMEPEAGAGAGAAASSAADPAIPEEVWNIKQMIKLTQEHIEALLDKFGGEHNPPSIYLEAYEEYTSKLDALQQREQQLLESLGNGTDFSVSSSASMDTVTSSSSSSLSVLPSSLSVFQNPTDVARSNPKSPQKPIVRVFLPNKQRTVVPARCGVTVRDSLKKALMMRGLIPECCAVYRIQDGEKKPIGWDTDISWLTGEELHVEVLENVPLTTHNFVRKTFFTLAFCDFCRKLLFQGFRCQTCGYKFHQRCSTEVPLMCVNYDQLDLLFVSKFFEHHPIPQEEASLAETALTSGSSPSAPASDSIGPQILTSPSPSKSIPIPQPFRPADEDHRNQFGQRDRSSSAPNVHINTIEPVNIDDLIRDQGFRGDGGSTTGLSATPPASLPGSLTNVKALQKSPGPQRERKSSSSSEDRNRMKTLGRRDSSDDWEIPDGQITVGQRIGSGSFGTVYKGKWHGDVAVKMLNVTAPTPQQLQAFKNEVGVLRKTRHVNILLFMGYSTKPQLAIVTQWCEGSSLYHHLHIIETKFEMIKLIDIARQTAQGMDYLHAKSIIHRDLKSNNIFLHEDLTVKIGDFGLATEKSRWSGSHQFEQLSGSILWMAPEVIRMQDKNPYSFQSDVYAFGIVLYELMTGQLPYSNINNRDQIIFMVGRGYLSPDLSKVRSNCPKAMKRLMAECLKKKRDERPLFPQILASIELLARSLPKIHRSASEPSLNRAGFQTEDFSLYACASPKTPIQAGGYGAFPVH

Legend:
B-Raf = B-Raf (Homo sapiens, UniProt P15056); conditions: read-out: IC50, previously established value; King et al., supra; cited from earlier work
V600E B-Raf = V600E B-Raf (Homo sapiens, UniProt P15056, V600E); assay: biochemical

IC50 (V600E B-Raf): 0.96 nM
SMILES: CN(C)CCOc1ccc(-c2nc(-c3ccncc3)c(-c3ccc4c(c3)CC/C4=N\O)[nH]2)cc1 [SB-590885]
IC50 (B-Raf): 0.6 nM
